Reference: patent US20150011740A1, “FLUORINE-CONTAINING WATER SOLUBLE PLATINUM COMPLEXES FOR TUMOR TREATMENT AND PROCESS OF PREPARING SAME” (GUDUI BIOPHARMA TECHNOLOGY INC., priority 2011, published 2015)

Conditions: buffer, pH 7

Half-life: 96 h
Substance: diisopropylamino platinum (II) (1-O-D-glucoside-ethane-2-fluoro-2,2-dicarboxylate) [Example 25]
